One molecule from PMC3747596 (PLoS ONE, 2013) can be followed below.

By UniProt entry, the sequences of proteins in these tests, tags left out. Where a name states a change or a piece, a line headed by the entry shows the natural chain unless it says otherwise.
UniProt P41145: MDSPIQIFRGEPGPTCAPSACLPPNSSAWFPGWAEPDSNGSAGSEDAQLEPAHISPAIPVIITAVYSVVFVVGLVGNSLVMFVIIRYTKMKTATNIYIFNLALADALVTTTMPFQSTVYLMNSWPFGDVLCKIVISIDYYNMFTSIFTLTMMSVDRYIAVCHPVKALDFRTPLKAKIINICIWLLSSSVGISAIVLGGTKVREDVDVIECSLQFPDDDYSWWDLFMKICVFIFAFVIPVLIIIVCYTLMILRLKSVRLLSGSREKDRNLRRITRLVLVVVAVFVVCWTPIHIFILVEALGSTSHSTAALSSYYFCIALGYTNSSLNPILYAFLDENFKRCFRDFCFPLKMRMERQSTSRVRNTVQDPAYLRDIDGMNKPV

The target in this experiment is κ opioid receptor (κ-OR) (Homo sapiens, UniProt P41145). Put plainly: Radioligand displacement, κ. On the technique in general: Displacement assays read how much labelled ligand stays bound in the presence of the test substance.

Where “and” joins values, the source holds several entries; their conditions need not be identical. Equal values may be shown once.

The Ki is a measure of affinity in units of concentration, obtained from inhibition or displacement. With `N=C(N)Nc1ccc2[nH]c3c(c2c1)C[C@@]1(O)[C@H]2Cc4ccc(O)c5c4[C@@]1(CCN2CC1CC1)[C@H]3O5` [GNTI, 5′-guanidinonaltrindole], the Ki (K i) amounted to 3 nM; the inhibition constant (Ki) (Ki) is 1 nM and 3.4 nM.
